{"source": "patent US20120135089A1", "about": "“E3 LIGASE INHIBITORS” (priority 2009, published 2012)", "test_system": "U2OS (p53 wild-type) and H1299 (p53 null) cells", "assay": "combination viability assay, excess over Bliss independence", "format": "cell-based, human", "conditions": "U2OS and H1299, 48 hours", "data": [{"substance": "Nutlin-3", "values": [{"measurement": "synergy with camptothecin or etoposide on viability", "result": "synergy with camptothecin and etoposide only in the p53-wild-type cell line"}]}]}
